Reference: patent US8138193B2, “Fused pyrazine compounds useful for the treatment of degenerative and inflammatory diseases” (Janssen Pharmaceutica N.V., priority 2007, dated 2012)

Tested on: MMP1 expression by SFs
Assay: 'MMP assay': MMP1 ELISA on supernatant of activated synovial fibroblasts
Type: cell-based, human
Conditions: each cytokine 25 ng/mL or THP1 supernatant 2-fold diluted, 72 h after addition
Protocol: A 384-well format ELISA for measurement of MMP1 is developed. Various primary antibodies are tested, as well as various ELISA protocols. The following protocol is developed and validated to measure MMP1 levels in SF supernatant in 384 well plates: white Lumitrac 600 384 well plates (Greiner) are coated with 2 μg/mL anti-MMP1 antibody MAB1346 (Chemicon). The antibody is diluted in buffer 40 (1.21 g Tris base (Sigma), 0.58 g NaCl (Calbiochem) and 5 ml 10% NaN3 (Sigma) in 1 L milliQ water and adjusted to pH 8.5). After overnight incubation at 4° C., plates are washed with PBS (80 g NaCl, 2 g KCl (Sigma), 11.5 g Na2HPO4.7H2O and 2 g KH2PO4 in 10 L milliQ; pH 7.4) and blocked with 100 μL/well Casein buffer (2% Casein (VWR International) in PBS). Next day, casein buffer is removed from ELISA plates and replaced by 50 μL/well EC buffer (4 g casein, 2.13 g Na2HPO4 (Sigma), 2 g bovine albumin (Sigma), 0.69 g NaH2PO4.H2O (Sigma), 0.5 g CHAPS (Roche), 23.3 g NaCl, 4 mL 0.5 M EDTA pH 8 (Invitrogen), 5 mL 10% NaN3 in 1 L milliQ and adjusted to pH 7.0). 0.25 mM DTT (Sigma) is added to the thawed samples plates. After removal of the EC buffer, 20 μL of sample is transferred to the ELISA plates. […] Readout is performed on the Luminoscan Ascent Luminometer (Labsystems) with an integration time of 200 msec or with an Envision reader (Perkin Elmer). […]

“TNF-α: recombinant cytokine used to trigger MMP1 expression by SFs” was tested. Which “induction of the MMP1 expression by SFs” value did it give?
The value was 3 fold.
